The subject of one experiment is A2780 tumors. The experiment in a line: Human ovarian tumor xenografts (A2780) in athymic nude mice, tumor volume % T/C. Format: in vivo. The settings on record: doxorubicin 4.0 mg/kg iv days 0,7. As for the experimental part: (§1) Female athymic nude mice (Harlan Laboratories Models, S.L. (Barcelona, Spain) were utilized for all experiments. Animals were housed in individually ventilated cages, up to ten per cage in a 12-hour light-dark cycle at 21-23° C. and 40-60% humidity. The mice were allowed free access to irradiated standard rodent diet and sterilized water. Animals were acclimated for at least 5 days prior to tumor implantation with a tumor cell suspension.
The formula to calculate volume for a prolate ellipsoid was used to estimate tumor volume (mm^3) from 2-dimensional tumor measurements: Tumor volume (mm^3)=[L×W^2]÷2, where L is the length and it is the longest diameter in mm, and W is the width and it is the shortest diameter in mm of a tumor. Assuming unit density, volume was converted to weight (i.e., 1 mm^3=1 mg). Tumor volume and animal body weights were measured 2-3 times per week starting form the first day of treatment (Day 0).
PM01183 was provided in the form of vials of lyophilized PM01183 cake which was reconstituted with water for infusion to a concentration of 0.2 mg/mL. The PM01183 stock solution was further diluted in 5% glucose solution for injection to the dosing formulation concentrations. […] Vinorelbine was provided as a solution prepared by diluting the product with 0.9% saline solution.
Dose level groups were administered either as single agents or in combination. […]

Another experiment concerns SW1990 tumors. The experiment in a line: Human pancreatic tumor xenografts (SW1990) in athymic nude mice, tumor volume % T/C. The class given is in vivo. The settings on record: gemcitabine 90.0 mg/kg iv days 0,7,14. How it is done:
as §1
Each animal was subcutaneously implanted on the right flank, using 26G needle and a 1 cc syringe, with 5×10^6 SW1990 cells, from in vitro passage 12, in 0.05 mL suspension of 50% Matrigel and 50% serum free medium, without antibiotics.
PM01183 was provided in the form of vials of lyophilized PM01183 cake which was reconstituted with water for infusion to a concentration of 0.2 mg/mL. The PM01183 stock solution was further diluted in 5% glucose solution for injection to the dosing formulation concentrations.
Dose level groups were administered either as single agents or in combination.
Comparison of the median tumor volume in the treatment groups (T) to the median tumor volume in the control group (T/C×100%) was used for evaluation of the antitumor efficacy.
Background: In xenograft studies the graft and the host belong to different species.

These results are taken from patent publication US11590129B2, “Combination therapy with an antitumor alkaloid” (PHARMA MAR, S.A., priority 2010, dated 2023).

As to `COc1cccc2c1C(=O)c1c(O)c3c(c(O)c1C2=O)C[C@@](O)(C(=O)CO)C[C@@H]3O[C@H]1C[C@H](N)[C@H](O)[C@H](C)O1` [Doxorubicin, doxorubicin], in the experiment with A2780 tumors, the “% T/C on day 10” value is 68.9%. With `Nc1ccn([C@@H]2O[C@H](CO)[C@@H](O)C2(F)F)c(=O)n1` [Gemcitabine, gemcitabine], the “% T/C on day 17” value in the experiment with SW1990 tumors is 47.4%.
